## Yeast mating assay 1: variants of the scFv Ab-14

The measurements come from Engelhart et al. 2022 (doi:10.1038/s41597-022-01779-4) through the FLAb antibody collection.

Target: peptide PDVDLGDISGINAS, taken from heptad repeat 2 (HR2) of SARS-CoV-2 spike.

Each scFv is VH, a (GGGGS)3 linker, VL, as in the parent Ab-14, and differs from it in the CDRs of the heavy chain only.
VH: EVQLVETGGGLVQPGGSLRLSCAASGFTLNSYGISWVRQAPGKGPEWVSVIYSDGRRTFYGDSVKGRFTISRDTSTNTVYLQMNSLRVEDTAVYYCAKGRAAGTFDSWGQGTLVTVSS
VL: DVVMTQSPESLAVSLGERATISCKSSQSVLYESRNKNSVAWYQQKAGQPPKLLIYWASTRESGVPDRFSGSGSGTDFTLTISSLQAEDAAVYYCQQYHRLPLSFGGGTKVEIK

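In library AAYL49, one, two or three CDR residues were substituted; doubles and triples were drawn at random. The assay is AlphaSeq: two haploid yeast populations carry antibody and antigen on their surface. Pairs that bind mate more often; barcode pairs of the diploids are counted by sequencing. Read counts were normalised to the haploid input and turned into Kd by a linear fit to BCL2-family pairs of known affinity, for each replicate. Mating was done three times.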

Changes read parent residue, position, new residue, counted from the first residue of the VH shown. This list gathers variants with a substitution at S31 (VH, numbered from residue 1). The Kd shown is the geometric mean over detected replicates; a lower Kd is a better binder. An entry "no signal" has no value in the source: the pair was not observed among the diploids in any replicate. This suggests poor binding but is not conclusive. For reference, the parent read 4.4 nM as the reference entry and 13 µM (one replicate of three) as a member of this library. Empty control strains, which show no peptide, gave a signal in 15% of pairings with library AAYL49; the median was 11 µM and 95% of these signals were weaker than 680 nM. No background was subtracted.

changes	Kd (apparent)	replicates with signal
S31C+G99D+R100D	no signal	0 of 3
S31P+S53F+G61Y	2.5 µM	1 of 3
S31G+Y52S+S107Y	2.8 µM	2 of 3
S31W+D62Q+G103A	no signal	0 of 3
S31P+D54C+A101D	17 µM	1 of 3
S31C+Y52S+S107N	no signal	0 of 3
S31Q+V64D+A101W	3.2 µM	2 of 3
S31D+G33S+T58W	9.4 µM	2 of 3
S31K+G55A+R100H	no signal	0 of 3
S31Q+G61S+T104F	730 pM	3 of 3
S31G+I34Y+V64E	no signal	0 of 3
S31D+F59Q+G61I	550 pM	3 of 3
S31R+Y32G+S107M	no signal	0 of 3
F27M+S31G+V64K	no signal	0 of 3
S31E+D54E+F105Q	3.5 µM	1 of 3
S31C+G99C+A101T	1.6 µM	1 of 3
S31C+K65D+S107M	no signal	0 of 3
S31V+D62C+S63E	40 µM	2 of 3
S31M+T58S+A102H	1.9 µM	3 of 3
T28C+S31G+G99V	no signal	0 of 3
G26A+S31V	280 nM	3 of 3
S31L+R100C+T104W	310 nM	3 of 3
S31N+T104G	3.7 µM	2 of 3
S31D+G33S+R56E	no signal	0 of 3
S31C+Y52M+F59T	1.4 µM	1 of 3
S31W+Y32E+D54Q	310 nM	1 of 3
S31I+D54M+G61S	no signal	0 of 3
S31N+S35N+D62T	no signal	0 of 3
S31Q+G33L+D106K	2.1 µM	1 of 3
T28V+S31L	180 nM	1 of 3
S31F+Y32E+Y60N	no signal	0 of 3
S31R+D54C+G55R	no signal	0 of 3
S31K+D54A+T104Y	no signal	0 of 3
L29F+S31H+R57M	no signal	0 of 3
S31E+S63Q+K65T	no signal	0 of 3
S31E+T58A+S107Y	25 nM	3 of 3
S31A+K65W+A102N	no signal	0 of 3
S31F+Y60I+D62P	no signal	0 of 3
S31N+Y52F+F105E	11 nM	3 of 3
S31D+S35Q+S107Y	28 µM	3 of 3
N30I+S31I+S35R	no signal	0 of 3
S31Q+Y32C+F105G	110 nM	1 of 3
S31D+F59W+D106Y	no signal	0 of 3
S31W+T58C+T104R	2.3 µM	1 of 3
S31N+S107H	no signal	0 of 3
S31M+G99W+T104M	2.0 nM	3 of 3
S31H+R57E+K65I	no signal	0 of 3
S31R	40 nM	3 of 3
S31M+V50G+Y52K	100 µM	1 of 3
T28F+S31V+D54I	no signal	0 of 3
S31M	no signal	0 of 3
S31C+S35I+Y60N	no signal	0 of 3
S31M+G99L+A101V	no signal	0 of 3
S31M+R57F+D106R	1.1 µM	1 of 3
S31K+T104G+S107P	26 µM	2 of 3
G26L+S31K+T104P	no signal	0 of 3
S31M+G33Y+D54M	no signal	0 of 3
S31W+G33L+I34F	130 µM	3 of 3
S31C+I51M+A102M	no signal	0 of 3
L29K+S31D+S63W	no signal	0 of 3
S31D+F59I+A102L	no signal	0 of 3
S31A+Y32N+T58F	no signal	0 of 3
S31C+V50I	170 nM	3 of 3
S31P+D54P+F59T	1.4 µM	1 of 3
N30V+S31K+I51L	250 nM	3 of 3
N30C+S31N+V50G	no signal	0 of 3
S31C+D62H	980 nM	1 of 3
S31I+I34R+D54T	no signal	0 of 3
S31H+G61T+D62F	no signal	0 of 3
S31E+R100C+F105P	45 µM	1 of 3
G26V+S31Q+F105P	4.2 µM	3 of 3
S31T+R57L+G99A	no signal	0 of 3
N30E+S31C+I34R	2.3 µM	1 of 3
S31P+Y60C+V64T	no signal	0 of 3

7 of these entries, quoted again:

changes	Kd (apparent)	replicates with signal
S31E+D54E+F105Q	3.5 µM	1 of 3
S31N+T104G	3.7 µM	2 of 3
S31M+G99L+A101V	no signal	0 of 3
S31M+G33Y+D54M	no signal	0 of 3
N30E+S31C+I34R	2.3 µM	1 of 3
S31W+G33L+I34F	130 µM	3 of 3
S31I+I34R+D54T	no signal	0 of 3